Molecular target: T1, Arabidopsis HPPD (Arabidopsis thaliana, UniProt P93836)
T1 construct: made in house; host or cells: E. coli BL21 (DE3) codon+ RP
T1 sequence (P93836 1-445): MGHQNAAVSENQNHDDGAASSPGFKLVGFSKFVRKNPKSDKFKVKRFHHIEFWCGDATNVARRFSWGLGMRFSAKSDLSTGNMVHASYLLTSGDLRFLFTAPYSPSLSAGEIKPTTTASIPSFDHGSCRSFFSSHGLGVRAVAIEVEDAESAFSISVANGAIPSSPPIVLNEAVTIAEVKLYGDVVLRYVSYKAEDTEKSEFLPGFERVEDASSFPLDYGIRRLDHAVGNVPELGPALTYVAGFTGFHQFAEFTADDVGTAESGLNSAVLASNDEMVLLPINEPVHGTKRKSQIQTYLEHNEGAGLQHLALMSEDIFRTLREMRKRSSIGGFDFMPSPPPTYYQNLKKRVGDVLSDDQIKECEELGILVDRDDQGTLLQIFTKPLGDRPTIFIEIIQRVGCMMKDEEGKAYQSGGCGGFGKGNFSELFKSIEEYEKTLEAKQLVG
Experiment: Dissociation of enzyme/inhibitor complexes by exchange with 14C-labelled inhibitor (koff; Kd = koff/kon)
Type: binding
Experimental: It will be appreciated that many suitable methods known in the art for determining such low koff values are suitable for working the current invention. These include measuring rates of exchange of radio or otherwise labelled inhibitors either with or away from the enzyme inhibitor complex. For example enzyme inhibitor complexes can readily be prepared by incubating HPPD preparations with labelled or unlabelled inhibitor and then, after suitable periods, optionally rapidly separating the thus formed enzyme inhibitor complex from excess inhibitor by any suitable method such as ultrafiltration, binding to filters or exchange down a gel filtration column. Exchange reactions with the, thus prepared enzyme inhibitor complex is then initiated by addition of, as appropriate, excess labelled or unlabelled inhibitor. […] Many methods such as radiometric, fluorimetric, NMR, fluorescence depolarisation, EPR, Mossbauer, UV/VIS spectrophotometry etc. or phonon resonance can, in principle, be used to monitor the enzyme/ligand exchange reactions and, particularly in this case where the enzyme contains an iron atom at the ligand binding site. Optionally, the monitoring method may be continuous (as, for example, with scintillation proximity/bead-based methods) or, discontinuous, based upon collection of data at various timepoints wherein samples are removed and the bound and unbound label components rapidly separated and quantitated.
Values of koff can suitably be calculated by computer fitting based upon is numerical integration of the exchange data along with information on the active-site concentration of HPPD and upon kon values obtained as described below. […] In any event, koff values are always here calculated from the rate of the major slow exchange reaction.
^14C mesotrione is of specific activity 1.12 GBq/mmol. […] Following this initial binding reaction, exchange reactions are initiated by addition of cold mesotrione to a final concentration of 60 μM and 200 μl aliquots removed at various times to rapid chromatography down a NAP5 gel filtration column equilibrated in 50 mM BTP at pH 7 containing 0.1 M KCl, separation into fractions containing protein-bound or free radiolabel and liquid scintillation counting.

`CS(=O)(=O)c1cc(C(F)(F)F)ccc1C(=O)C(C#N)C(=O)C1CC1` (centres unmarked) [Structure IV, 1-[2-(methanesulfonyl)-4-(trifluoromethyl)phenyl]-3-cyclopropyl-2-cyano-propane-1,3-dione] was tested, and the Kd (value obtained + glycerol (in parentheses)) was 0.017 nM and the Kd (without glycerol, Kd = koff/kon) was 0.046 nM.
